{"source": "patent US7589121B2", "about": "“Use of furan alkyls for preparing a drug for treating obesity and cosmetically treating overweight” (priority 2004, dated 2009)", "system": "GSH-S-transferase (target PXR)", "assay": "Analysis of mRNAs in the muscles and BAT: GSH-S-transferase", "assay_type": "in vivo, mice", "conditions": "TZD", "method": "In the brown adipose tissue (BAT) and in the muscles, the mRNA expression of 3 genes was determined in 5 mice of each group by real-time Q-RTR-PCR analysis."}
{"smiles": "CN(CCOc1ccc(CC2SC(=O)NC2=O)cc1)c1ccccn1", "note": "(stereo not shown) [TZD, Rosiglitazone]", "values": [{"measurement": "GSH-S-transferase (target PXR) mRNA, MUSCLE/BAT", "result": "⇑"}]}
